Test system: APP/PS1 transgenic mice
Assay: Blood brain barrier penetration and brain localisation after i.p. injection
Format: in vivo, mouse
Details: 100 nmol/kg i.p., 1 h, 17-month old APP/PS1 mice, brain sections
Text: APPswe/PS1ΔE9 mice with a C57Bl/6 background (APP/PS1 mice) were obtained from the Jackson lab (http://research.jax.org/repository/alzheimers.html). To determine if Flu-RI-OR2-TAT crosses the blood brain barrier (experiment 1), 2 male 17-months-old APP/PS1 animals and 2 16-months-old C57BL/6 animals were used. To look at the effects of RI-OR2-TAT on mouse brain pathology (experiment 2), 8 female 10-months-old APP/PS1 mice were used. The animals were housed in single cages in a temperature controlled holding room (21.5°C±1) with 12∶12 h light and dark cycle. Food and water was available ad libitum.
For experiment 1, all 4 animals were injected i.p. with 100 nmol/kg of Flu-RI-OR2-TAT in 0.9% NaCl at 0 h. The animals were then housed in a dark room. After 1 h, the animals were anaesthetised with isoflurane and sodium barbiturate (Dolethal, Bayer, Germany), transcardially perfused and the brains were retrieved and fixed in 4% ice cold paraformaldehyde. […]
All sections were visualized using an Axio Scope 1 fluorescence microscope (Zeiss, Germany). For quantification, two images per section were taken from the cortex area with a 10X objective for 8-oxo guanine and β-amyloid staining, and a 100X objective for Iba1 staining, with a minimum of 5 sections visualized per animal. […]

Substance: fluorescein-rGffvlkGrrrrqrrkkrGy-NH2 [Flu-RI-OR2-TAT]
- blood brain barrier penetration: can cross the BBB

Source: publication PMC3561363, “A Novel Retro-Inverso Peptide Inhibitor Reduces Amyloid Deposition, Oxidation and Inflammation and Stimulates Neurogenesis in the APPswe/PS1ΔE9 Mouse Model of Alzheimer’s Disease” (PLoS ONE, 2013)
